Test results: patent publication US9062043B2, “Fused tricyclic compounds as serine-threonine protein kinase and PARP modulators” (SENHWA BIOSCIENCES, INC., priority 2006, dated 2015)

The chains behind the UniProt entries cited, without tags or fusion partners. Residues count along the entry.
UniProt P06239, 2-509 limits assumed: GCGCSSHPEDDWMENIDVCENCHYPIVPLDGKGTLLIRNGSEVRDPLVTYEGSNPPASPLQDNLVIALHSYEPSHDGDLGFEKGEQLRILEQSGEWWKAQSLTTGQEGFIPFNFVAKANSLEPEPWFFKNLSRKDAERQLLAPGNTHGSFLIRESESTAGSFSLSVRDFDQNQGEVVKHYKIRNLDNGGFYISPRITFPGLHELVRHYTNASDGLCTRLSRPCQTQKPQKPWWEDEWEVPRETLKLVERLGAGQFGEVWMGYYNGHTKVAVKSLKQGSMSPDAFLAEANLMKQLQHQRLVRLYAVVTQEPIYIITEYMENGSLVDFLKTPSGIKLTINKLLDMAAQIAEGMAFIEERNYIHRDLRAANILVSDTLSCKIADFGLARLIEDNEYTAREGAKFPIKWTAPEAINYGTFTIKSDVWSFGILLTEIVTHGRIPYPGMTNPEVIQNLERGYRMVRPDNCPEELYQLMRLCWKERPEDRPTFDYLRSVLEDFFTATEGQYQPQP

How the values were obtained:
[1] = tested on: BC-PC3 cells xenograft; conditions: 60 mg/kg QD IV, 50 mg/kg BID IV or 100 mg/kg BID IP
[2] = tested on: MDA-MB-231 xenografts; conditions: IV 30 and 60 mg/kg and oral 200 mg/kg
[3] = target: protein kinases (Homo sapiens, UniProt Q9HBH9); test: Kinase inhibition, percentage of activity at 0.5 μM, standardized radiometric kinase assays; format: biochemical; conditions: Mnk2(h);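 further: each kinase tested separately, with activity read as 33P-labelled substrate protein captured on filters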
[4] = target: protein kinases (Homo sapiens, UniProt P24941); test: as above; format: biochemical; conditions: CDK2/cyclinA(h)
[5] = target: protein kinases (Homo sapiens, UniProt Q13043); test: as above; format: biochemical; conditions: MST1(h)
[6] = target: protein kinases (Homo sapiens, UniProt P06239); test: as above; format: biochemical; conditions: Lck(h)
[7] = target: protein kinases (Homo sapiens, UniProt O94804); test: as above; format: biochemical; conditions: LOK(h)
[8] = tested on: MiaPaca xenografts; test: Tumor suppression in MiaPaca xenograft mice; format: in vivo

## C#Cc1cccc(Nc2nc3cc(C(=O)O)ccc3c3cncnc23)c1 [compound A2]
[1]
  Tumor progression inhibition (FIG. 4A): significantly inhibited tumor progression
[2]
  Tumor progression inhibition: significantly inhibited tumor progression
[3]
  % activity at 0.5 μM: 63%
[4]
  % activity at 0.5 μM: 63%
[5]
  % activity at 0.5 μM: 96%
[6]
  % activity at 0.5 μM: 63%
[7]
  % activity at 0.5 μM: 84%
[8]; IV 50 and 60 mg/kg and IP 100 mg/kg
  Tumor progression inhibition: significantly inhibited tumor progression
[8]; oral 100 mg/kg QDx8 and 200 mg/kg QDx6
  Tumor progression inhibition: significantly inhibited tumor progression
